Experimental data from PMC7866885, “A novel bicyclic 2,4-diaminopyrimidine inhibitor of Streptococcus suis dihydrofolate reductase” (PeerJ, 2021).

Target: T1, S. suis dihydrofolate reductase (SsDHFR) (Streptococcus suis, UniProt A0A0H3N4C4)
T1 construct: gene dyr; full-length dhfr in pET15b (NdeI/BamHI, N-terminal vector tag kept); clarified lysate of E. coli BL21(DE3), not purified
T1 sequence (A0A0H3N4C4 1-170): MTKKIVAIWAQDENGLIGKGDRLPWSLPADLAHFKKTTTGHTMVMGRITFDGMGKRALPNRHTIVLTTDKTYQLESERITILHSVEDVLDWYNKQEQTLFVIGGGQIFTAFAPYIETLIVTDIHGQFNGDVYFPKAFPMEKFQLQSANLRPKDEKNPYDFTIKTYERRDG
Test: DHFR activity, NADPH consumption at […] nm
Format: biochemical
Conditions: 1 µM inhibitor; 0.1 mM dihydrofolate, 0.1 mM NADPH, 50 mM TES pH 7.0; lysate of overexpressing E. coli BL21(DE3), host DHFR background present

CN(Cc1cnc2nc(N)nc(N)c2n1)c1ccc(C(=O)N[C@@H](CCC(=O)O)C(=O)O)cc1 [methotrexate]
% activity at 1 μM: Methotrexate and MMV675968 inhibited SsDHFR more effectively that trimethoprim
